In US20060121085A1, “Formulations for cell-schedule dependent anticancer agents” (priority 2003, published 2006):

Test system: subcutaneous SW480 (Human Colon Cancer) tumors
Test: Example 4 Floxuridine in Atrix polymer, SCID mice bearing SW480 tumors II
Conditions: 100 mg/kg FUDR/Saline × 1, ip, 20 μL; listed as free Floxuridine

## O=c1[nH]c(=O)n([C@H]2C[C@H](O)[C@@H](CO)O2)cc1F [FUDR, 5-fluorodeoxyuridine]
  Mortality (%): all survived
